Source: patent US11833137B2, “Substituted chromenones, IRE1 inhibitors, and methods of using same” (The Wistar Institute, priority 2018, dated 2023)

Test system: XBP-1s expression, 5TGM1 cells
Experiment: XBP-1s immunoblot in 5TGM1 multiple myeloma cells

Compound: O=Cc1c(O)ccc2c3c(c(=O)oc12)CNCC3
- suppression of XBP-1s expression, long term (10 μM for a course of 3 days): recovered significantly in cells treated for 2 days
- overall comparison of inhibition of IRE-1 / XBP-1s expression in whole cells (summary statement): most efficient aldehyde compounds in inhibiting IRE-1 in intact cells
